Laboratory results as given in article doi:10.1101/2024.08.08.607204, “Mechanism of ASF1 Inhibition by CDAN1” (bioRxiv, 2024).

T1: Strep-tagged CDAN1 (ST-CDAN1), wildtype (human, UniProt Q8IWY9 1-1227)
T1 construct: Codanin-1 (CDAN1) cDNA from Horizon Discovery/Dharmacon; a point mutation of the clone (S421F) was corrected; in pCDNA3.1; Dimer by SEC-MALS and cryo-EM; Same plasmid used in Expi293 (purifications) and in Flp-In 293 T-REx (pulldowns); kept as one molecule; also called WT CDAN1; Strep-CDAN1; source: Expi293, transiently transfected, in lysate and purified in complexes (anti-FLAG, Strep-Tactin); …
T1 sequence: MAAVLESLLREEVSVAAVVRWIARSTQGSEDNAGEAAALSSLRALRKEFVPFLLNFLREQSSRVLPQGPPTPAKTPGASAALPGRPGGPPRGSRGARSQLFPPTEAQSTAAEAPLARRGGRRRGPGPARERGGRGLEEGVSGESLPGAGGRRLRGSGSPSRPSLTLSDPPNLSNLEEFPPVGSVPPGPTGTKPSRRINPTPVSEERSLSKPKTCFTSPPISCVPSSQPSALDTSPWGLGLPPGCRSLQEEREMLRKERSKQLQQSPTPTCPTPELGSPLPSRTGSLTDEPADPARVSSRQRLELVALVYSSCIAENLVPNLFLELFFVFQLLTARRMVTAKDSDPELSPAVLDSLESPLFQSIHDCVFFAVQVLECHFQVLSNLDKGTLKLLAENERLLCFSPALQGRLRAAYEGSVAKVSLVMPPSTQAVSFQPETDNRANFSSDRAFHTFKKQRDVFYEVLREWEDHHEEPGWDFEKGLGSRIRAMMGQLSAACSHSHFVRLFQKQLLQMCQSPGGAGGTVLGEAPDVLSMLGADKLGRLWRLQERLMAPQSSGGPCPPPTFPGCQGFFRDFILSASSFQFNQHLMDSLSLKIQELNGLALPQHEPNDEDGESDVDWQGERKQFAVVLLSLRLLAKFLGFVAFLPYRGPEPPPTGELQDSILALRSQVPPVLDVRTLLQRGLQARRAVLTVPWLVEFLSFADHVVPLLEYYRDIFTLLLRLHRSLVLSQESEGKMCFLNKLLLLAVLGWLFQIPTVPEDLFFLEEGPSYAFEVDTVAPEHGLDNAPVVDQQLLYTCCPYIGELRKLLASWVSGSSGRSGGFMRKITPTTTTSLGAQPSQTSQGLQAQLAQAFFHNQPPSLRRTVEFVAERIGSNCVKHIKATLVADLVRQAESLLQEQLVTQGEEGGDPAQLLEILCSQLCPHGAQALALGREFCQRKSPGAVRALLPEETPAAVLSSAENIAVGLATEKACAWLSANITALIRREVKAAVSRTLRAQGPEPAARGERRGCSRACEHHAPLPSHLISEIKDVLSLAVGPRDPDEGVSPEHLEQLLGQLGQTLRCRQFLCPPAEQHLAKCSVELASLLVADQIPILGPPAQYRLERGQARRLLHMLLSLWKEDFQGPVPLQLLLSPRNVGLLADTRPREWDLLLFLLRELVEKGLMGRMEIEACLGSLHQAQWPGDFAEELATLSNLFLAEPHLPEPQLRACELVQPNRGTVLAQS


Molecular target: T1, Strep-tagged CDAN1 (ST-CDAN1), wildtype
Assay: SEC-MALS; 200 μg of each purified complex at 5 μM on an SRT SEC-300 column with DAWN HELEOS II detector; dn/dc 0.185
Details: both partners purified

| stoichiometry N | Binder |
| --- | --- |
| 3 copies of ASF1A per two copies of CDAN1 | HA-tagged ASF1A (natural protein, ASF1A cDNA synthesized by IDT, in pCDNA3.1; also called HA-ASF1A; ASF1A-1; source: Expi293, transiently transfected, in lysate and purified in the C:C:A complex (anti-FLAG, Strep-Tactin); not shown: 3xHA, N-terminal, kept) not shown |
| 3 copies of ASF1A per two copies of CDAN1 | FLAG-tagged ASF1A (F-ASF1A) (natural protein, ASF1A cDNA synthesized by IDT, in pCDNA3.1; Same plasmid used in Expi293 and in Flp-In 293 T-REx; kept as one molecule; also called FLAG-ASF1A; source: Expi293, transiently transfected, in lysate and purified in the C:A complex (anti-FLAG, Strep-Tactin); Flp-In 293 T-REx, co-transfected, in lysate; not shown: 3xFLAG, N-terminal, kept) not shown |
